Test results published in patent publication US20210324074A1 (US Dept. of Health and Human Services, published 2021).

Target: T1, CD22 ECD-Fc fusion protein (UniProt P20273 20-687, limits assumed)
T1 construct: extracellular domain; also called CD22-Fc; not shown: Fc part
Assay: SPR, BIAcore X100; CD22 ECD-Fc amine-coupled to the chip, scFv as analyte (0.32-200 nM per paragraph 213), fitted model

## M971 G4S (scFv)
  Kd: 3.1 nM
